Laboratory results published in US10898481B2 (priority 2018, dated 2021).

By UniProt entry, the sequences of proteins in these tests, tags left out. Where a name states a change or a piece, a line headed by the entry shows the natural chain unless it says otherwise.
UniProt P29275: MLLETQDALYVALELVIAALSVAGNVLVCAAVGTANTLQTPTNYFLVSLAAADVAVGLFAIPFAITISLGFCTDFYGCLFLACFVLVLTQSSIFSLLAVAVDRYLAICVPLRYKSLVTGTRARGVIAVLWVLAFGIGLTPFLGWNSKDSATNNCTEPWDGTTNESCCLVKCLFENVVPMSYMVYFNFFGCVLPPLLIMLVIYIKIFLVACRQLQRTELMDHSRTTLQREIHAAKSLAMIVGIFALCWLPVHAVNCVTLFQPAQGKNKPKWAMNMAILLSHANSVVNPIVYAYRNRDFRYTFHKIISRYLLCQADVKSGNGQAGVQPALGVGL
UniProt P0DMS8, whole entry: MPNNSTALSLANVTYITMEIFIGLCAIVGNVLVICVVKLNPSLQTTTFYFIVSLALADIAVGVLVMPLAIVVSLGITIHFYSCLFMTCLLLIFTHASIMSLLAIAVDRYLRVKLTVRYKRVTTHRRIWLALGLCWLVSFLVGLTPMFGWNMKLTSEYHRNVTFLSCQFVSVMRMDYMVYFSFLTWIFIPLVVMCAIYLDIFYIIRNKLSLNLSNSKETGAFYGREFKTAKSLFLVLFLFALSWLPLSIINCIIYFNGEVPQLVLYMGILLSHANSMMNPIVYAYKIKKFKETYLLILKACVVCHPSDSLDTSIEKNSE
UniProt Q60613, whole entry: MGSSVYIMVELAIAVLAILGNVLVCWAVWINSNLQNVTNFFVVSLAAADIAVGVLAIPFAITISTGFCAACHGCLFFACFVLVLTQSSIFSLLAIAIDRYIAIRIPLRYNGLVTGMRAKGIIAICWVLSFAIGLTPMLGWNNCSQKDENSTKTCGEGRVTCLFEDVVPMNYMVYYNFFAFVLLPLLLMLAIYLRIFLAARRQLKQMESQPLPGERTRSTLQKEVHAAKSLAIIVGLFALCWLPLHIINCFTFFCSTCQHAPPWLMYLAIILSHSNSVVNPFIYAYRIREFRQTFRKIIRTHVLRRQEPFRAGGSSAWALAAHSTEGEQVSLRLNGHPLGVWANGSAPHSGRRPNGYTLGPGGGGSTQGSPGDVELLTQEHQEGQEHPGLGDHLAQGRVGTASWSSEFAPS

How the values were obtained:
hA2b/CHO = hA2b/CHO (Homo sapiens (Human), UniProt P29275); experiment: cAMP inhibition assay in hA2b/CHO cells, 10 μM adenosine; assay type: cell-based; conditions: read-out: cAMP & FLIPR IC50 (nM) hA2b;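 further: cells exposed to compound 30 min at 37 °C, then stimulated with adenosine a further 30 min, cAMP read after 60 min at room temperature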
hA2a/CHO = hA2a/CHO (Homo sapiens (Human), UniProt P29274); experiment: cAMP inhibition assay in hA2a/CHO cells, 10 μM adenosine; assay type: cell-based; conditions: read-out: cAMP & FLIPR IC50 (nM) hA2a;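 further: compounds added to cells 30 min ahead of adenosine, then a further 30 min at 37 °C with adenosine before cAMP detection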
hA2a = hA2a (Homo sapiens (Human), UniProt P29274); experiment: Radioligand binding to hA2a membrane with [3H]-CGS21680; conditions: read-out: Binding Affinity (IC50 nM) hA2a
Description: The empty boxes in the tables below indicate data not collected yet.

hA3/CHO = hA3/CHO (Homo sapiens (Human), UniProt P0DMS8); experiment: cell-based
Protocol: hA2a/CHO, hA2b/CHO, hA3/CHO and mA2a/CHO (Genscript) were plated at 5×10^3 cells/well into 384-well polystyrene plates at the day of experiment. Compounds were pre-incubated with cells for 30 min at 37° C., 5% CO2. Then 10 μM adenosine was added to the cells and incubated for 30 min at 37° C., 5% CO2. Detection reagent (CISBIO) was added and the plates were incubated for 60 min at room temperature. The signal was captured by Envision.

mA2a/CHO = mA2a/CHO (Mus musculus (Mouse), UniProt Q60613); experiment: cAMP inhibition assay in mA2a/CHO cells, 10 μM adenosine; assay type: cell-based; conditions: read-out: cAMP & FLIPR IC50 (nM) mA2a;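 further: compounds preincubated 30 min at 37 °C before the adenosine challenge, then 30 min further stimulation, readout after 60 min detection reagent incubation at room temperature in 384-well plates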

`Cn1cc(-c2nc(CNC(=O)c3c(F)cccc3F)c(N)nc2-c2ccc(F)cc2)ccc1=O` [Example 88, N-((3-amino-5-(4-fluorophenyl)-6-(1-methyl-6-oxo-1,6-dihydropyridin-3-yl)pyrazin-2-yl)methyl)-2,6-difluorobenzamide] gave an IC50 (hA2b/CHO) of 3170 nM, an IC50 (hA2a/CHO) of 61 nM and an IC50 (hA2a) of 2.4 nM. The IC50 (hA3/CHO) was at least 10 µM and the IC50 (mA2a/CHO) was 272 nM.
